Active and inactive are the calls of the source.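 Rule for the calls: active = a tumour-causing dose and a tumour site recorded for mice in at least one sex group; inconclusive = only government mouse studies exist and were judged inadequate; inactive = mouse studies exist but none gave tumours.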

This series concerns mouse carcinogenicity bioassay, TD50 from CPDB. Put plainly: DSSTox (CPDBAS) Carcinogenic Potency Database Summary Mouse Bioassay Results. Particulars: for outcome: TD50_Mouse_Note: no positive results, TargetSites_Mouse_Female: no positive results. The source says:
The Carcinogenic Potency Database (CPDB) is a unique and widely used international resource of the results of over 6500 chronic, long-term animal cancer tests on over 1500 chemical substances. The CPDB provides easy access to the bioassay literature, with qualitative and quantitative analyses of both positive and negative experiments that have been published over the past 50 years in the general literature and by the National Cancer Institute/National Toxicology Program. The CPDB standardizes the diverse literature of cancer bioassays that vary widely in protocol, histopathological examination and nomenclature, and in the published author's choices of what information to provide in their papers. Results are reported in the CPDB for tests in rats, mice, hamsters, dogs, and nonhuman primates, and are based on the most positive result among all experiments for each sex-species. The DSSTox CPDBAS (all species) file incorporates data from the CPDB Summary Tables for the full list of over 1500 chemical substances tested in at least one species. Summary bioassay results for Mouse (TD50, tumor sites, male, female, both sexes) are provided in the CPDB Summary Tables and the DSSTox CPDBAS file for over 1000 chemical substances.
TD50 is a standardized quantitative measure of carcinogenic potency (analogous to an LD50) and is reported in the CPDB Summary Table for each species. Activity Score for actives is computed by mapping of LOG10 (1/TD50_Mouse_mmol) activity values spanning range [MIN, MAX] onto Integer 1-100 Activity Score range, where 100 is highest potency and 1 is lowest: Activity Score = 100 * INTEGER[(log10(1/Activity) - MIN)/(MAX […] MIN)]. If activity is reported but no TD50_Mouse_mmol value is computed, such as for a mixture, the Activity Score is assigned the activity value "50". […] Target sites are reported for each sex-species group with a positive result in the CPDB on the basis of a positive author's opinion for the particular site, using all results from both the general literature and NCI/NTP bioassays. If a chemical has two or more target sites listed, the results may be from different experiments, and a single site may be a target organ in more than one experiment, as well. Blank entry in TargetSites field indicates no results reported.

With `CCN(N=O)C(=N)N[N+](=O)[O-]`, under “TargetSites_Mouse_BothSexes: esophagus, small intestine”, the Potency is 0.0176 mmol/kg/day.

For `C[As](=O)(O)O`, the outcome was “inactive; no positive results”. In the case of `C1CN1`, the Potency (TD50_Mouse_Note: TD50 is harmonic mean of more than one positive test, harmonic mean of TD50 includes a value for the upper 99% confidenc, TargetSites_Mouse_Female: lung) is 0.00875 mmol/kg/day. As for `O=C1C2CC=CCC2C(=O)N1SC(Cl)(Cl)C(Cl)Cl` (stereo unspecified), the Potency (TD50_Mouse_Note: TD50 is harmonic mean of more than one positive test, greater than ten-fold variation among TD50 values for positive res, TargetSites_Mouse_Female: hematopoietic system, liver, small intestine, stomach, vascular system) is 0.51 mmol/kg/day. Consider `COP(=O)(OC)N1CCOCC1`, for which the outcome is “inactive; no positive results”. Regarding `CN(N=O)C(=N)N[N+](=O)[O-]`, the Potency (TargetSites_Mouse_Female: small intestine) was 0.0138 mmol/kg/day.
